Most compounds without a hit are left out; they make up all but 1.5% or so of the library.
UUG fidelity: yeast start codon fidelity modulation; activity score, % at 18.7 µM; actives 0.13% (n = 350,000); S. cerevisiae UUG-firefly luciferase reporter, luminescence/redox ratio; AID 602363;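 active means replicate mean at a twofold rise or more, about +100% in these data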;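 further: firefly luciferase made from a UUG start codon reports start codon fidelity; reporter light over untreated wells divided by growth signal over untreated wells; some hits fall short of that in this replicate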
miR-122 sensor: miR-122 Renilla sensor signal increase in Huh7, primary screen, miR-122 inhibitor project, cell-based, single point, plate reader; Huh7 miR-122 Renilla luciferase sensor, 48 h; neutral wells = 0, positive control = 100; activation (reporter increase), % at 12.5 µM; 0.3% of 340,000 active;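 active = mean replicate activation score at least 90 and every replicate individually at or above 90; inconclusive = only one of the two criteria met; inactive = neither criterion met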;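 note: higher luciferase means less miR-122 activity so hits act as miR-122 inhibitors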
FN deposition inh: inhibitors of fibronectin matrix deposition, primary screen, AH1F cells, Alexa488-fibronectin fluorescence, plate reader | AH1F fibroblasts, overnight | inhibition, % at 12.6 µM | 0.086% of 350,000 active;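 active = mean inhibition across replicates of 30% or more, regardless of how many single replicates reach that level; inconclusive = mean under 30% yet at least half of replicates reach 30%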
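Measured by – fluorescence 485/525 nm · System – AH1F fibroblast monolayer, labelled fibronectin deposition · Amount – 10000 cells per well · Buffer or medium – serum-reduced DMEM (2% serum) · Doses – single dose, pinned · Also added – fluorescent fibronectin at 24 nM final · Schedule – 1 h cell attachment, overnight exposure to compound and label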
HIV Env fusion: inhibitors of HIV-1 Env-driven cell-cell fusion, primary screen, HeLa-JRFL effector, CEM21 target cells, luciferase | inhibition, % at 12.3 µM | 1.1% of 360,000 active | AID 651610, 2012;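 active = mean replicate inhibition score of at least 50 and every replicate individually at or above 50; inconclusive = only one of the two criteria met; inactive = mean below 50 and not all replicates reaching 50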
Cneo AK release: Cryptococcus neoformans cell lysis inducers, primary screen, AK release luminescence, single concentration; 0.2% of 360,000 active; lysis activity, % at 15 µM; C. neoformans lysis, adenylate kinase release luminescence, 4 h; normalised: neutral wells 0, clomiphene wells 100; AID 651654, 2012;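 active = mean lysis activity across replicates of at least 80%, whatever share of replicates individually reach that level; inactive = mean lysis activity below 80%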
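Test system: log-phase Cryptococcus neoformans yeast cells; Quantity: yeast cell density of 5 × 10^6 cells/mL; Buffer or medium: YPD; Doses: single compound concentration per well; Timing: 4 h at 37 °C static, read 1 h later; Measured by: AK luminescence; Read-out basis: lysis from increased AK signal; Control set: Clomiphene as positive control.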
PGC1a acetyl inh: inhibitors of PGC1a acetylation signal, primary screen, cell-based, U2OS, AlphaScreen, inhibitor mode; inhibition, % at 15.6 µM; 0.17% of 350,000 active; AlphaScreen anti-acetyl-lysine; with virally co-expressed GCN5 acetyltransferase;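 active = every replicate shows inhibition of at least 40%; inconclusive = mean inhibition at least 40% but some replicate below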
A number is an active result; n = inactive; u = inconclusive; x = no result; ! = repeats disagree.

SMILES	UUG fidelity	miR-122 sensor	FN deposition inh	HIV Env fusion	Cneo AK release	PGC1a acetyl inh
COC(=O)C12OCC34C(CC5C(C)=C(O)C(=O)CC5(C)C3C(O)C1O)OC(=O)C(OC(=O)C=C(C)C)C24 (stereo not given)	x	n	n	64	x	u
CC(C)(C)CC(C)(C)NC(=S)Nc1ccc2nc(-c3ccccn3)c(-c3ccccn3)nc2c1	n	n	n	58	n	n
O=C([C@H]1[C@H](CO)[C@H]2Cn3c(ccc(-c4ccccc4F)c3=O)[C@H]2N1CC1CC1)N1CCCCC1	x	x	x	x	n	x
O=C(CSc1nc(O)cc(=O)n1-c1ccccc1)Nc1nc2ccccc2s1	n	n	n	67	n	n
COc1ccc(NC(=O)CSc2nc(O)cc(=O)n2-c2ccccc2)cc1	n	n	x	n	n	n
CCCn1c(SCC(=O)N2c3ccccc3Sc3ccccc32)nc2c1c(=O)n(C)c(=O)n2C	n	n	active	n	n	x
CCCCn1c(SCC(=O)Nc2nnc(CC)s2)nc2c1c(=O)n(C)c(=O)n2C	n	237	x	n	n	x
CCCn1c(SCC(=O)Nc2nc3ccccc3s2)nc2c1c(=O)n(C)c(=O)n2C	n	n	n	64	n	n
CC(C)n1c(SCC(=O)Nc2nc3c(s2)CCCC3)nc2c1c(=O)n(C)c(=O)n2C	n	n	n	87	n	n
COc1ccc(-n2ncc(S(=O)(=O)c3ccccc3)c2-c2ccc(Cl)cc2)cc1	n	n	n	60	n	n
O=C(Nc1ccc(Cl)cc1)OCCN1CCOCC1	n	x	n	n	n	n
O=C(Nc1ccc(Cl)cc1)OCCn1nnnc1C(c1ccccc1Cl)N1CCOCC1 (stereo not given)	n	n	x	113	n	x
O=C(c1cc(Cl)ccc1Cl)N1CCN(c2ccccn2)CC1	n	n	x	x	n	n
O=C(c1cc(Br)ccc1Cl)N1CCN(c2ccccn2)CC1	n	n	n	n	135	n
CCCC#Cc1cnc2c(c1)C(=O)N([C@@H](C)CO)C[C@H](C)[C@H](CN(C)C(=O)c1cccc(F)c1)O2	n	n	x	n	n	n
COCC#Cc1cnc2c(c1)C(=O)N([C@H](C)CO)C[C@H](C)[C@@H](CN(C)C(=O)Nc1ccc(OC)cc1)O2	n	n	x	n	n	n
CC(C)CC#Cc1cnc2c(c1)C(=O)N([C@@H](C)CO)C[C@@H](C)[C@@H](CN(C)C(=O)c1cccc(F)c1)O2	x	n	n	n	101	n
COCC#Cc1cnc2c(c1)C(=O)N([C@H](C)CO)C[C@@H](C)[C@@H](CN(C)C(=O)Nc1ccc(OC)cc1)O2	n	n	x	n	97	n
CC(C)CC#Cc1cnc2c(c1)C(=O)N([C@H](C)CO)C[C@H](C)[C@H](CN(C)C(=O)c1cccnc1)O2	n	n	x	n	82	n
COc1cccc(C#Cc2cnc3c(c2)C(=O)N([C@@H](C)CO)C[C@@H](C)[C@H](CN(C)C(=O)C2CCOCC2)O3)c1	n	n	x	n	n	n
CC(C)CC#Cc1cnc2c(c1)C(=O)N([C@@H](C)CO)C[C@@H](C)[C@H](CN(C)C(=O)c1cccnc1)O2	n	n	x	n	n	n
COc1cccc(C#Cc2cnc3c(c2)C(=O)N([C@H](C)CO)C[C@@H](C)[C@@H](CN(C)C(=O)C2CCOCC2)O3)c1	n	n	x	n	81	n
Cc1nc2cc(NC(=O)COc3ccccc3C#N)ccc2n1-c1ccccc1	n	n	x	x	n	n
COc1ccc(CC(=O)Nc2ccc(S(=O)(=O)Nc3nccc(C)n3)cc2)cc1	n	n	x	x	n	n
CCCC#Cc1cnc2c(c1)C(=O)N([C@@H](C)CO)C[C@H](C)[C@H](CN(C)C(=O)Nc1cccc(F)c1)O2	n	n	n	n	88	n
SMILES	UUG fidelity	miR-122 sensor	FN deposition inh	HIV Env fusion	Cneo AK release	PGC1a acetyl inh
COc1ccc2c(c1OC)C(=O)OC2Nc1ccccc1S(=O)(=O)C(F)F (stereo not given)	n	n	x	n	94	n
CCN(Cc1nc2cc(Cl)ccc2c(=O)[nH]1)C(=O)c1cc(C2CC2)nn1-c1ccccc1	x	x	n	86	x	x
CCCCCc1ccc(-c2ccc(/C=C/C(=O)O)cc2)nc1	n	n	n	n	n	x
CCCc1ccc(-c2ccc(/C=C/C(=O)O)cc2)nc1	x	x	n	61	x	x
O=C(OCCO)c1c(-c2ccccc2)oc2c1C(OCCO)CCC2 (stereo not given)	x	x	x	61	x	x
Nn1nnc2ccccc21	n	n	n	94	n	n
O=C(C[C@@H]1C/C=C/CC[C@@H](Cc2ccc(F)cc2)C(=O)O[C@H](c2ccccc2)CNC1=O)NCCO	n	n	n	83	n	x
O=C(Nc1cccc(C(F)(F)F)c1)c1c(O)c2ccccc2[nH]c1=O	n	n	x	x	n	n
Cc1ccc(S(=O)(=O)Nc2ccccc2-c2ccccc2)cc1	n	161	n	n	n	n
COc1ccc(-c2ccc(-c3nc4c(c(=O)[nH]c(=O)n4Cc4ccccc4)n3C)o2)c([N+](=O)[O-])c1	n	n	n	n	n	n
COc1ccc(-n2cc(CNCCc3nc(C)cc(C)n3)c(-c3ccccc3Cl)n2)cc1	n	n	x	n	94	n
CNC[C@H]1Oc2c(NS(=O)(=O)c3cccs3)cccc2C(=O)N([C@H](C)CO)C[C@@H]1C	n	n	n	n	96!	n
CNC[C@@H]1Oc2c(NS(=O)(=O)c3cccs3)cccc2C(=O)N([C@@H](C)CO)C[C@H]1C	n	n	n	x	86	n
CNC[C@@H]1Oc2c(NS(=O)(=O)c3cccs3)cccc2C(=O)N([C@H](C)CO)C[C@@H]1C	n	n	n	x	n	n
CNC[C@@H]1Oc2c(NS(=O)(=O)c3ccc(Cl)cc3)cccc2C(=O)N([C@H](C)CO)C[C@H]1C	n	n	n	x	87	n
CC(C)C(NC(=O)c1ccccc1)C(=O)NCC(c1ccccc1)N(C)C (stereo not given)	x	x	n	n	x	x
COc1ccc(N2C(=O)NC3CC2(C)Oc2ccc(Cl)cc23)cc1OC (stereo not given)	x	n	x	x	x	n
COc1ccc(CCN2C(=S)NC3CC2(C)Oc2ccc([N+](=O)[O-])cc23)cc1OC (stereo not given)	n	n	n	59	n	n
Cc1ccccc1OCC(O)Cn1c(SC(C)C)nc2c1c(=O)[nH]c(=O)n2C (stereo not given)	n	n	n	n	n	n
O=C(Nc1ccc(C(=O)NN2C(=O)c3ccccc3C2=O)cc1)c1ccccc1	n	n	n	n	n	x
O=C1CCCS(=O)(=O)c2ccccc21	n	172	n	n	n	x
O=C1CCCCC(=O)N(c2ccccc2)c2ccccc21	n	n	n	n	n	n

From PubChem
